Laboratory results reported in patent publication US11141452B2, “Bifunctional compounds for relief of pain comprising an opioid receptor agonist moiety and a NK1 receptor antagonist moiety and methods for treating pain” (THE ARIZONA BOARD OF REGENTS ON BEHALF OF THE UNIVERSITY OF …, priority 2014, dated 2021).
Non-standard residues stand in square brackets, D forms with d. Residues, ends and D or L forms follow the SMILES beside them. *: point of attachment. NH(3,5-(CF3)2-benzyl) = FC(F)(F)c1cc(CN*)cc(C(F)(F)F)c1

Chains of the proteins cited; added tags and fusions are not shown.
UniProt P30547, whole entry: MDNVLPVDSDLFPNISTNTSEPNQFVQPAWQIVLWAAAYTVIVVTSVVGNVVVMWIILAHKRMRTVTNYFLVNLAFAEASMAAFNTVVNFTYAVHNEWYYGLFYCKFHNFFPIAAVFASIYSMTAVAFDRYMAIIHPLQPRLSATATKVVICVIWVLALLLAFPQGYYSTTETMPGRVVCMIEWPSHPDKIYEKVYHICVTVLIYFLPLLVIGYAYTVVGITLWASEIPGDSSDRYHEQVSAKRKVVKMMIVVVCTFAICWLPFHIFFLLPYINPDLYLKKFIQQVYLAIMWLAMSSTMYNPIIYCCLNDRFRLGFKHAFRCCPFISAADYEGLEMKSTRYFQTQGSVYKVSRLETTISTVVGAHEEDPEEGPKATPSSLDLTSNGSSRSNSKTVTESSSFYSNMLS

How the values were obtained:
MOR [1] = assay: Radioligand binding assay at μ opioid receptor
MOR [2] = assay: Guinea pig isolated ileum (GPI) functional assay; format: cell-based
NK1R = target: T1, NK1R (Cavia porcellus, UniProt P30547); assay: GPI/LMMP functional assay at NK1R (agonist and antagonist testing); format: cell-based, guinea pig; settings: agonist activity at the concentration in the cell
T1 construct: The longitudinal muscle with myenteric plexus (LMMP) was carefully separated from the circular muscle; from tissue; host or cells: guinea pig ileum longitudinal muscle with myenteric plexus

Question: How did the “binding selectivity for MOR over DOR” value (MOR [1]) turn out when CC(C)C[C@H](NC(=O)[C@@H]1CCCN1C(=O)[C@H](Cc1ccc(O)cc1)NC(=O)CNC(=O)[C@H](Cc1ccccc1)NC(=O)[C@@H](C)NC(=O)[C@@H](N)Cc1ccc(O)cc1)C(=O)N[C@@H](Cc1c[nH]c2ccccc12)C(=O)NCc1cc(C(F)(F)F)cc(C(F)(F)F)c1 [AKG114] (H-Y[dA]FGYPLW-{NH(3,5-(CF3)2-benzyl)}) was run?
Answer: 5 times

Question: What about the “Ki^μ/Ki^δ” value (MOR [1]; ratio of binding affinities MOR/DOR) of the same molecule?
Answer: 1/5

Question: And the “GPI/MVD IC50 ratio” value (MOR [2])?
Answer: 4/1

Question: And the “GPI/LMMP (NK1R) Agonist” value (NK1R)?
Answer: None at 300 nM
